Measured values: ChEMBL document CHEMBL3421561, “CNS drug design: balancing physicochemical properties for optimal brain exposure” (J Med Chem, 2015)

Test system: Nucleic Acid
Assay: Ratio of drug uptake in brain to plasma in rat
Assay type: ADME

CN1CC[C@]23c4c5ccc(O)c4O[C@H]2[C@@H](O)C=C[C@H]3[C@H]1C5 [MORPHINE]
Kp: 0.54
